## Binding of CDR-mutated scFvs to a peptide of the spike HR2 region

Reference: Engelhart et al. 2022, doi:10.1038/s41597-022-01779-4. File: FLAb, binding data.

Binding partner: SARS-CoV-2 spike HR2 peptide, sequence PDVDLGDISGINAS.

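The parent was found by panning a naive human phage display library on the peptide. The library (AAYL52) carries one to three amino acid substitutions per variant, with no insertions or deletions. The scFvs were displayed on barcoded MATa yeast, the peptide on MATalpha yeast. After mating in shaken culture at 30 °C for 16 h, diploids were selected and their barcode pairs sequenced. A regression on co-assayed BCL2-family reference pairs converts the normalised counts of each replicate to an apparent Kd. The assay was run in three technical replicates.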

The variants keep the heavy chain, the linker and the frameworks of Ab-95 (scFv order VH, a (GGGGS)3 linker, VL).
VH: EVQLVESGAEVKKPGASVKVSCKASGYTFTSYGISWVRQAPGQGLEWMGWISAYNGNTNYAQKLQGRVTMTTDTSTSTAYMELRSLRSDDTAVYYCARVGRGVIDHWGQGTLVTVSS
VL: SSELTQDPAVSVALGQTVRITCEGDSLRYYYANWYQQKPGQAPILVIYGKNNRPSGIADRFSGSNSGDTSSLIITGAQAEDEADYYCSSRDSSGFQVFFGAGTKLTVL

Variants are written as CDR1, CDR2 and CDR3 of the light chain (limits as in the source). Parent: EGDSLRYYYAN, GKNNRPS, SSRDSSGFQVF.
Values are log10 of the apparent Kd in nM; lower means stronger binding.
Where no diploid with the target was found in that replicate, the entry reads "ND": below detection, most likely a poor binder, though not proof of it.
Three control strains display no target. For library AAYL52, 28% of the pairings with them gave a signal, with a median of 3.91 and one signal in twenty below 2.90, so weak values seen in few replicates may be background. Also given: how often the same scFv was detected with the empty control strains, with their mean in brackets.

| # | CDR-L1 | CDR-L2 | CDR-L3 | replicates, log10 nM | control signals |
|---|---|---|---|---|---|
| 1 | EGKSLRYYYHN | GKNNRPS | SSRDSSGFLVF | 3.75 2.89 2.68 | 1/9 (3.87) |
| 2 | EGDSLRYYYAN | GKMNWPS | SSRDSSGFQRF | 4.50 4.10 ND | 1/9 (3.45) |
| 3 | EGDSLRYYYAN | GKNNNPS | ANRDSSGFQVF | ND ND 3.58 | 0/9 |
| 4 | EGWSLRYYYAN | GKNNRPS | SSADSSGFQVS | 2.79 5.52 ND | 0/9 |
| 5 | EGDSLRYYYAQ | GENNRPS | SSRDSSMFQVF | 3.57 3.57 3.62 | 1/9 (4.90) |
| 6 | EGDSLRYYCAN | GKNNRPY | ISRDSSGFQVF | 3.45 2.35 3.23 | 5/9 (4.16) |
| 7 | EGYSLRYYYAN | GKNNRPS | SSRDSAGFQVF | 2.58 2.37 1.88 | 2/9 (4.10) |
| 8 | EGDSTRYYYAN | GKNPRPS | SSRDSSGFQVG | ND ND ND | 2/9 (3.80) |
| 9 | EGISVRYYYAN | GKNMRPS | SSRDSSGFQVF | 4.08 3.83 3.28 | 3/9 (3.53) |
| 10 | EGDSLRYYHAN | GKNNLPS | SSRDSSGFQVF | 1.93 1.80 1.81 | 8/9 (4.04) |
| 11 | EGDYLRYFYAN | GKNNRPS | SSRDSSGFHVF | 3.92 2.93 3.11 | 1/9 (3.93) |
| 12 | EGDSLRYYYAN | GKNNRPS | SSRPSGGFQVD | 3.61 3.33 3.35 | 3/9 (4.17) |
| 13 | VGDSLRYYYAN | GKNNSPD | SSRDSSGFQVF | 2.74 1.90 1.62 | 3/9 (4.05) |
| 14 | EGDSLRYYNAN | GKNNRKS | SSRDSSGFQNF | 2.11 1.86 1.62 | 1/9 (5.39) |
| 15 | EGKSLRYYYAN | GKNNRPS | SSRLSSGFQVF | ND 4.03 2.91 | 4/9 (4.02) |
| 16 | MGDSLRYYYYN | EKNNRPS | SSRDSSGFQVF | ND 4.22 ND | 1/9 (4.32) |
| 17 | EGDSLRYYYAN | GKNNRAS | SSRDSSFSQVF | 2.69 2.54 2.28 | 1/9 (3.75) |
| 18 | ERDSLRYYYAN | HKNNRPS | SSRDSSGFQVF | ND ND ND | 1/9 (3.88) |
| 19 | EGDMLEYYYAN | GKNNRPS | SSTDSSGFQVF | ND ND ND | 1/9 (3.33) |
| 20 | EGDSLRYRYSN | GKNNRPM | SSRDSSGFQVF | 2.59 3.14 2.45 | 6/9 (4.09) |
| 21 | EGDSLRYYYAN | GMNNRPS | CSHDSSGFQVF | 3.45 ND ND | 0/9 |
| 22 | EGKSLRYYYAN | GKNNDPS | SSRDSSGFQVF | ND ND ND | 1/9 (3.67) |
| 23 | EGDSLCYLYAN | GKNNRPS | SSRDSNGFQVF | 4.06 2.92 3.38 | 1/9 (4.29) |
| 24 | EGDSLRYYYAN | GKNNCPS | SSRDSYKFQVF | 3.97 ND ND | 2/9 (4.45) |
| 25 | EGDSLRYYYAN | GKNNRPY | PSFDSSGFQVF | 3.55 3.62 4.30 | 2/9 (4.73) |
| 26 | EGDSLRYYYAN | GKNNRPS | SSRDDQGFDVF | 2.44 2.34 2.44 | 3/9 (3.93) |
| 27 | EGDSLRYYYHN | GKNNRPS | MSRWSSGFQVF | ND ND 3.11 | 2/9 (4.68) |
| 28 | EGDRLRYYYAN | GKNNRPS | SSRDSSPFQVK | ND ND ND | 2/9 (4.51) |
| 29 | EGDSLRYYYYA | GKNNRPS | SSRDSSGFQVF | ND ND ND | 1/9 (4.00) |
| 30 | EGDSLRYYYAN | EKNNRPS | SSRDPSGFQNF | 4.23 3.87 ND | 2/9 (4.46) |
| 31 | ELDSLPYYYAN | GKNNRPS | SSRDSSGQQVF | 2.81 2.49 2.27 | 5/9 (3.66) |

Repeated from above, the 3 best binders with a signal in all replicates:

CDR-L1,CDR-L2,CDR-L3,"replicates, log10 nM",control signals
EGDSLRYYHAN,GKNNLPS,SSRDSSGFQVF,1.93 1.80 1.81,8/9 (4.04)
EGDSLRYYNAN,GKNNRKS,SSRDSSGFQNF,2.11 1.86 1.62,1/9 (5.39)
VGDSLRYYYAN,GKNNSPD,SSRDSSGFQVF,2.74 1.90 1.62,3/9 (4.05)

For reference, the parent read 2.31 as the reference entry and 2.25 as a member of this library.